The text below walks through data of patent US20250109212A1 (BIOSION, published 2025).

Chains of the proteins cited; added tags and fusions are not shown. Lines headed by an entry give the natural chain unless they say otherwise; changes in a name come on top.
UniProt P25942: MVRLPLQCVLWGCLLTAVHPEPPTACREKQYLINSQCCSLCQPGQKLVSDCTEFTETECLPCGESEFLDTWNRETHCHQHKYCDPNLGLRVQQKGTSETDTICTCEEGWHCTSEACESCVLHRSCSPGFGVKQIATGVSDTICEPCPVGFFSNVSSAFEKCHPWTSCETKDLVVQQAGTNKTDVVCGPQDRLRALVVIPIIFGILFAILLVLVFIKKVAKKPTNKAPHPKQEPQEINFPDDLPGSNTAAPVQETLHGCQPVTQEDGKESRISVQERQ

Usually EC50 stands for the midpoint of the concentration-response curve. A higher EC50 goes with a less potent agent.

This assay addresses human CD40-Fc protein (Cat #: CD0-H5253, ACRO Biosystems) (human, UniProt P25942, in part). The assay can be described thus: dual-binding ELISA: human CD40-Fc coated, binder titrated, detected with human CD47-his and anti-His-HRP, OD450.

B1: SIRPα-Fc-CD40L (Fc fusion)
chain: [about 350 residues not given here]ESKYGPPCPSCPAPEFLGGPSVFLFPPKPKDTLMISRTPEVTCVVVDVSQEDPEVQFNWYVDGVEVHNAKTKPREEQFNSTYRVVSVLTVLHQDWLNGKEYKCKVSNKGLPSSIEKTISKAKGQPREPQVYTLPPSQEEMTKNQVSLTCLVKGFYPSDIAVEWESNGQPENNYKTTPPVLDSDGSFFLYSRLTVDKSRWQEGNVFSCSVMHEALHNHYTQKSLSLSLGKHRRLDKIEDERNLHEDFVFMKTIQRCNTGERSLSLLNCEEIKSQFEGFVKDIMLNKEETKKENSFEMQKGDQNPQIAAHVISEASSKTTSVLQWAEKGYYTMSNNLVTLENGKQLTVKRQGLYYIYAQVTFCSNREASSQAPFIASLCLKSPGRFERILLRAANTHSSAKPCGQQSIHLGGVFELQPGASVFVNVTDPSQVSHGTGFTSFGLLKL
B1 gave an EC50 of 6.17 nM.
